According to PMC3674230 (Chemical communications (Cambridge, England), 2012):

Biological target: hCAII (Homo sapiens, UniProt P00918)
Assay: standard esterase activity assay against hCAII
Format: biochemical

## O=C(O)c1ccc(O)cc1 [Compound 3, 4-Hydroxybenzoic acid]
  IC50: 8 ± 2 mM
